According to patent US20230248660A1, “METHOD OF PREPARING LOXAPINE FILM ORAL DOSAGE FORM” (Intelgenx Corp., priority 2016, published 2023):

Test system: Porcine buccal mucosa
Assay: Loxapine diffusion through Porcine buccal mucosa (Franz cell)
Conditions: penetration enhancer in loxapine oral film; permeation through the mucosa
Description: FIG. 1 graphically depicts 1 oxapine film diffusion through Porcine buccal mucosa (48-hrs-old unfrozen fresh mucosa) (Franz cell 1.76 cm2; 37° C.); saliva pH 6.8.
FIG. 2 graphically depicts 1 oxapine film diffusion through Porcine buccal mucosa (26-hrs-old unfrozen fresh mucosa) (Franz cell 1.76 cm2; 37° C.); saliva pH 6.8.
FIG. 3 graphically depicts 1 oxapine Solutions-diffusion through Porcine buccal mucosa (fresh mucosa kept at 4C for 48 hours) (Franz cell 1.76 cm2; 37° C.); saliva pH 6.8.
These penetration enhancers include sulphoxides (dimethylsulphoxide, decylmethyl sulfoxide), azones (laurocapram), pyrrolidones (2pyrrolidone, 2P), alcohols/alkanols (ethanol or decanol), glycols (propylene glycol), surfactants (anionic, sodium lauryl sulfate, sodium decyl sulfate), (Nonionic, Tween, PLE), (Cationic, chitosan, cetylpyridinium chloride), terpenes (1,8-cineole, menthol, and menthone, D-limonene), fatty acids (oleic acid, sodium caprate), and bile salts (sodium deoxycholate, sodium deoxyglycocholate).

Substance: D-a-Tocopherol Vitamin E 1000 succinate
- Effect on loxapine absorption/permeation: positif effect (+)
